Measurements from patent US12029804B2, “Peptide for promoting mucous membrane permeation and composition containing same” (SOONCHUNHYANG UNIVERSITY INDUSTRY ACADEMY COOPERATION …, priority 2018, dated 2024).
Where two headings read alike, the source gives them in different places.

Key:
nasal mucous membrane = conditions: rat, intranasal
Procedure: Male Sprague-Dawley (SD) rats (280-300 g) were acclimated for a minimum of two days in individual cages in a laboratory animal room. At this time, the rats were allowed to freely consume food and water before an experiment, provided with light for 12 hours, and maintained in the dark state for 12 hours. One day before the experiment, the animals were provided only with water and fasted.
The rats prepared in above 1 were divided into each group of three to five rats so as to prepare a total of nine groups, after which each of the test substances prepared was intranasally administered into the group. At this time, the dosage of each drug was 1.0, 2.5 or 5.0 mg/kg per rat.
Before intranasal administration, the rat was anesthetized and cannulated into the femoral veno-artery using PE-50. The solution was carefully administered to the nostril of the rat using a micropipette (Eppendof) so as not to affect the nasal mucous membrane. At this time, the rat's body was laid on the floor and the head was placed while leaning against the wall.
(§1) The collected blood was centrifuged at 13,000 rpm for 10 minutes so as to obtain 100 μl of plasma. After adding 200 μl of methanol to the obtained plasma, the resulting solution was subjected into vortex, and then centrifuged again at 13,000 rpm for 10 minutes to carry out deproteinization, and the supernatant was quantitatively analyzed by HPLC-MS.

[1] = tested on: intestinal mucous membrane; conditions: rat, duodenum, exenadine (10 mg/kg) alone (control); Mean ± SEM
Procedure: Before drug administration, the rat was anesthetized and cannulated into the femoral veno-artery using PE-50. An abdominal cavity was opened and the test substance was administered to an upper duodenum of the small intestine.
as §1, with “After administration of the solution through a cannula inserted into the femoral vein of the rat, each 250 μl of blood was collected at 5, 10, 20, 40, 60, 120, 180 and 240 minutes and saline was supplemented via the femoral artery. The” for “The”

[2] = fexofenadine with peptide vs fexofenadine alone

| Substance | AUC0-360min of fexofenadine, times higher than the group dosed with fexofenadine alone (nasal mucous membrane; fexofenadine with peptide (text on Table 1)) [times] | Fexofenadine AUC0-240 min, fold of control group (nasal mucous membrane; [2]) | Fexofenadine Cmax, fold of control group (nasal mucous membrane; [2]) | Fexofenadine Tmax, fold of control group (nasal mucous membrane; [2]) | Fexofenadine Cmax, fold of control group (nasal mucous membrane; fexofenadine with peptide vs fexofenadine alone, listed as H-FX1IGRL-OH) | Exenadine AUC0-240 min [1] [µg·min/mL] |
| --- | --- | --- | --- | --- | --- | --- |
| FX1IGRL-OH (X1=Dap(N3)) [Example 2] | 1.9 | (1.88-fold) | double | (0.67-fold) | (1.97-fold) |  |
| exenadine [reference compound] |  |  |  |  |  | 4.49 ± 0.94 |
